PMC3639985, “Differential Ligand Binding Affinities of Human Estrogen Receptor-α Isoforms” (PLoS ONE, 2013)

Protein sequences, listed by entry. Tags and fused reporters are not part of them. Residues count along the entry.
UniProt P03372, whole entry: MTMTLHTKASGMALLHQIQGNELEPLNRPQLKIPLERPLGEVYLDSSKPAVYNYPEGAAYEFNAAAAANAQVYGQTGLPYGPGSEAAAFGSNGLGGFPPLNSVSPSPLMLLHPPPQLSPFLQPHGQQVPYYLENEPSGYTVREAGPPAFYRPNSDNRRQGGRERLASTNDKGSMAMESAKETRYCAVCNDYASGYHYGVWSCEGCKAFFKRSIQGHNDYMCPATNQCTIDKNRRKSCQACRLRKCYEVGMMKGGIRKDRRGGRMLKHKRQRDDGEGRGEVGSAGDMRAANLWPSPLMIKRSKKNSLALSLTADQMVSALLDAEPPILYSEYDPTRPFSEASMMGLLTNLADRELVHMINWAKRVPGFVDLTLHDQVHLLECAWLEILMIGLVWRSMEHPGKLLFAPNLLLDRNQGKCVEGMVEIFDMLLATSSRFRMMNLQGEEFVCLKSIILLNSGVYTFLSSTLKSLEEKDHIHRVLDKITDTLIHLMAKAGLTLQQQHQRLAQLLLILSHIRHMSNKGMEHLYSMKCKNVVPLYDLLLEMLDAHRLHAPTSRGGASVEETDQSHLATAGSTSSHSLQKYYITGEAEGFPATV
UniProt P03372, 174-595: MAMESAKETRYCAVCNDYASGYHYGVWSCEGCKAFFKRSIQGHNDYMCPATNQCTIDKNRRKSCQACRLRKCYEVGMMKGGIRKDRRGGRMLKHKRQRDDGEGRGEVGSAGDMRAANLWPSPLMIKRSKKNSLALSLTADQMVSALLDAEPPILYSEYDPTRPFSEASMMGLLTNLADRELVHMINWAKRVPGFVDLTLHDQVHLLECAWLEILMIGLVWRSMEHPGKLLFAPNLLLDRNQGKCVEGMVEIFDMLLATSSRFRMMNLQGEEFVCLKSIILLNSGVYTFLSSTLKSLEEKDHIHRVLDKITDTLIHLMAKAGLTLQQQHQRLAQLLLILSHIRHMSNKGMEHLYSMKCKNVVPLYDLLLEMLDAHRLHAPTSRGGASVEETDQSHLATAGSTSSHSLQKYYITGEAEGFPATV

Columns and labels:
[1] = target: human ER66 (Homo sapiens, UniProt P03372); assay: Competitive [3H]-17β-estradiol ligand binding assay, ER66
[2] = target: human ER46 (Homo sapiens, UniProt P03372); assay: Competitive [3H]-17β-estradiol ligand binding assay, ER46; conditions: ratio of IC50 values of 17β-estradiol and compound; 17β-estradiol set at 100

CC(=O)c1ccc2c(c1)C1C=CCC1C(c1cc3c(cc1Br)OCO3)N2 (stereo not drawn)
RBA ER66 [1]: 0.007 | IC50 ([1]; read-out: IC50 ER66): 540 nM | RBA ER46 [2]: 0.003
